Laboratory results published in patent US20010010919A1 (priority 1998, published 2001).

Legend:
[1] = target: T1, novel mammalian opioid receptor (LC132, OFQR) (Rattus norvegicus, UniProt P35370); type: binding
T1 construct: The entire coding region of the receptor cDNA insert was subcloned into the RcRVS vector; expressed in transfected cells

OFQR = target: T2, OFQR (Rattus norvegicus, UniProt P35370); experiment: Saturation binding of (^125I)-Y14-orphanin FQ to membranes of OFQR transfected CHO cells, Scatchard analysis; conditions: Scatchard line abscissa intercept
T2 construct: The entire coding region of the receptor cDNA insert was subcloned into the RcRVS vector; expressed in transfected cells

CC[C@]12CCN(CC3CC3)[C@H](C(=O)c3ccc(O)cc31)[C@@H]2C [ethylketocyclazocine] was tested, and the “specific binding of the radioactively-labeled ligand” value [1] was “no specific binding”.
“I-Y14: monoiodo form of the Y14 tyrosine-substituted orphanin FQ peptide, radiolabeled with 125I for binding (FGGFTGARKSARKYANQ; non-natural residues)” showed a Bmax (OFQR) of 800 fmol/mg membrane protein.
